Counter-ions that a name gives are not always drawn.

By UniProt entry, the sequences of proteins in these tests, tags left out.
UniProt P28222, whole entry: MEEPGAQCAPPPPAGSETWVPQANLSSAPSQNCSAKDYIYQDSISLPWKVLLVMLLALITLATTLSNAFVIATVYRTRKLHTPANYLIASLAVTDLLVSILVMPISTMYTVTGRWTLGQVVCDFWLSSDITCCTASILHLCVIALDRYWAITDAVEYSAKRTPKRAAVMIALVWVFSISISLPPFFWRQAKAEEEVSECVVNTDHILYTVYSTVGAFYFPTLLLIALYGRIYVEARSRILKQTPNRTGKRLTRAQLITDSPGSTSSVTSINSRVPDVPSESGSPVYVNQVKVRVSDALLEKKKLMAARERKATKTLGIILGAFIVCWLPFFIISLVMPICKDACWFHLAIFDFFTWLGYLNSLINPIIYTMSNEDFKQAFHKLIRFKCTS

The target of the test is 5-hydroxytryptamine receptor 1B (Homo sapiens, UniProt P28222).

The compound `O=C(CCCN1CCC(O)(c2ccc(Cl)cc2)CC1)c1ccc(F)cc1` [4-[4-(4-Chloro-phenyl)-4-hydroxy-piperidin-1-yl]-1-(4-fluoro-phenyl)-butan-1-one;propionate(HCl)] displayed a Ki of 283 nM. That is a sub-micromolar value.

A word on the Ki: it is a dissociation constant, usually derived from enzyme kinetics or from competition with a known ligand. High values mean lower affinity, low ones higher affinity.

Source of the values: BindingDB's records for PubMed 7520908 (Janssen Research Foundation, 1994).
